# Reference: patent publication US20230241060A1, “GLUCOCORTICOID-SPARING AGENT” (METRIOPHARM AG, priority 2020, published 2023)
# Assay: Body weight in pilot study of collagen induced arthritis (CIA) in mice
# Details: MP1032 1 mg/kg/day alone, intraperitoneally
structure (smiles),measurement,value
Nc1cccc2c(=O)[nH][nH]c(=O)c12.[Na],"Body weight on day 45, arithmetic mean ± standard deviation",22.8 ± 1.68 g
